This passage reports Ki results from PMC3037833 (Angewandte Chemie (International ed. in English), 2010).

Broadly, the Ki is a measure of affinity in units of concentration, obtained from inhibition or displacement.

Experiment [1] addresses N2P1 (NHERF2 PDZ domain 1) (Homo sapiens, UniProt Q15599). The experiment in a line: Fluorescence polarization. In kind it is binding. The following applies: SD. (In fluorescence polarisation assays a small probe gives low polarisation when free and higher when bound to something large.)
Experiment [2] addresses N2P2 (NHERF2 PDZ domain 2) (Homo sapiens, UniProt Q15599). The experiment in a line: Fluorescence polarization. To be noted: SD. It counts as binding.
The target in experiment [3] is CALP (CAL PDZ domain) (Homo sapiens, UniProt Q9HD26). Description: Fluorescence polarization. It counts as binding. The following applies: SD.
The target in experiment [4] is CFTR10 (Homo sapiens). The experiment in a line: fluorescence polarization competition.

As to `CC(C)C[C@H](NC(=O)[C@H](CCCNC(=N)N)NC(=O)[C@@H](NC(=O)[C@H](CC(=O)O)NC(=O)[C@H](CCC(N)=O)NC(=O)[C@@H](NC(=O)[C@H](CCC(=O)O)NC(=O)[C@H](CCC(=O)O)NC(=O)[C@H](CCC(=O)O)NC(=O)[C@@H](N)[C@@H](C)O)C(C)C)[C@@H](C)O)C(=O)O` [CFTR10, reference compound], the Ki turned out to be 1.1 ± 0.1 µM in experiment [1] and 0.1 ± 0.02 µM in experiment [2].

`CC[C@H](C)[C@H](NC(=O)[C@@H](NC(=O)[C@H](CO)NC(=O)[C@@H](NC(=O)[C@@H]1CCCN1C(=O)[C@H](Cc1c[nH]c2ccccc12)NC(=O)[C@H](CCCNC(=N)N)NC(=O)[C@@H](N)CO)[C@@H](C)O)[C@@H](C)CC)C(=O)O` [iCAL36_8] yielded a Ki in experiment [3] of 20.3 ± 2.6 µM.

In experiment [4], CAL PDZ (from UniProt Q9HD26) showed a Ki of 390 µM.
